Measurements reported in PubChem BioAssay AID640 (Columbia University Molecular Screening Center, 2007).
Only a part is listed here, and it is no random draw. The source made the active and inactive calls.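 Rule for the calls: active = inhibition at 2 µM at or above a set limit, the screen mean plus 3 SD (cut at about 24% in these data); inactive = the rest.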

Sequences of proteins named here, by UniProt entry; tags and fusion partners are left off.
UniProt Q9Y2R2, whole entry, looked up: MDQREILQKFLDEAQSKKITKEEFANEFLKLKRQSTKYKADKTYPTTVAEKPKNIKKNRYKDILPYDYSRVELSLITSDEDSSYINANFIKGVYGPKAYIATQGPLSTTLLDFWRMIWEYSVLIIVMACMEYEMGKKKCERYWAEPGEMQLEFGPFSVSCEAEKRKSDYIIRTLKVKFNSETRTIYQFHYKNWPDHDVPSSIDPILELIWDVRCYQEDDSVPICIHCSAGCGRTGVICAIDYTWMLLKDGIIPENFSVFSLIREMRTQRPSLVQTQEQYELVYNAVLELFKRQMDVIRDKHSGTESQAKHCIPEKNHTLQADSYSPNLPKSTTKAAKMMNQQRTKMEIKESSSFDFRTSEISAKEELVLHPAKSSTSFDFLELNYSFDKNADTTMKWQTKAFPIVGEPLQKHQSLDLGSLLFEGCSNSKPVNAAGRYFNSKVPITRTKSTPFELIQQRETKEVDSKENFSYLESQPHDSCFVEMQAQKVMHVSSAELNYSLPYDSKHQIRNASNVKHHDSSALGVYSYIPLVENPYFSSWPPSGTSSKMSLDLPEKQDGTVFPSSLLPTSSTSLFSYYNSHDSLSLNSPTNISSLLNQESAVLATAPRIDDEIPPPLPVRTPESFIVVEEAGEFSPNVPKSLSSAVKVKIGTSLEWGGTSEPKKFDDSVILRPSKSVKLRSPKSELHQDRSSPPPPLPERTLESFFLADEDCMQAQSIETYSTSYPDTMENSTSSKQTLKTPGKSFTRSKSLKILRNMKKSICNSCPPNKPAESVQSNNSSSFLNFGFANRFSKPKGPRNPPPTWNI

Target: Tyrosine-protein phosphatase non-receptor type 22 (Homo sapiens) (UniProt Q9Y2R2)
Experiment: blockers of human LYP enzyme activity – biochemical, DiFMUP fluorescence, 2 µM, primary screen (AID 640);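 note: 0% = DMSO with enzyme and 100% = enzyme fully blocked by orthovanadate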
Settings: recombinant LYP catalytic domain, at 2 µM, active compounds read high

| Structure (SMILES) | inhibition |
| --- | --- |
| CC1(CBr)Cn2c(nc3ccccc3c2=O)S1 (stereo not drawn) | inactive: -4.6% |
| Clc1n[nH]nc1-c1nn[nH][15n]1 | inactive: 3.2% |
| O=P1(Nc2ccccn2)COc2ccccc2OC1 | inactive: -2.3% |
| Cc1ccc(OCC(=O)OC2CN3CCC2CC3)cc1 (stereo not drawn) | inactive: -3.6% |
| O=P1(Nc2ccc(Br)cn2)COc2ccccc2OC1 | inactive: -8.4% |
| O=P1(Nc2ncccn2)COc2ccccc2OC1 | inactive: 8% |
| Cc1nn(-c2ccccc2)c2c1P(=O)(N1CCOCC1)N(C)C(c1ccccc1)=N2 (stereo not drawn) | inactive: -7% |
| O=[N+]([O-])c1ccc2c(c1)nnn2O | inactive: -0.7% |
| CCOP1(=S)c2c(C)nn(CCC#N)c2N=C(c2ccc(F)cc2)N1C (stereo not drawn) | inactive: 4.2% |
| CCOP1(=S)c2c(C)nn(CCC#N)c2N=C(c2ccccc2F)N1C (stereo not drawn) | inactive: 4.3% |
| Cc1cccc(OCC(=O)OC2CN3CCC2CC3)c1 (stereo not drawn) | inactive: -1.5% |
| O=C(OC1CN2CCC1CC2)C12CC3CC(CC(C3)C1)C2 (stereo not drawn) | inactive: 8.5% |
| CCN(CC)C(=S)SC(NC=O)C(Cl)(Cl)Cl (stereo not drawn) | inactive: -1.2% |
| ClCCSc1nnc(-c2cccnc2)o1 | inactive: -5.6% |
| CCC(C)N(CC(C)C)C(=S)SC(NC(C)=O)C(Cl)(Cl)Cl (stereo not drawn) | inactive: -5.4% |
| O=C(COc1ccccc1)OC1CN2CCC1CC2 (stereo not drawn) | inactive: 0.7% |
| COP1(=S)c2c(C)nn(CCC#N)c2N=C(c2ccc(F)cc2)N1C (stereo not drawn) | inactive: -3.2% |

| Structure (SMILES) | inhibition |
| --- | --- |
| CC1CCN(C(=O)Oc2c(Cl)cc(Cl)c3cccnc23)CC1 | inactive: 5.2% |
| O=[N+]([O-])c1cccc2n[nH]nc12 | inactive: -3.1% |
| CC(=O)N1C2C3N(C(C)=O)C1C1N(C(C)=O)C(C(N1C(C)=O)N3C(C)=O)N2C(C)=O | inactive: 3.4% |
| CCc1nc2c(n1)c1c(non1O)c1c2no[n+]1[O-] | inactive: -11.1% |
| CCOP(=O)(Nc1ccccc1)OCC | inactive: 5.4% |
| CC(C)CC(=O)NC(Sc1ccc(Cl)cc1)C(Cl)(Cl)Cl (stereo not drawn) | inactive: -3.2% |
| Cc1c2non([O-])c-2c(C)[n+](=O)[n+]1[O-] | inactive: -21% |
| Oc1ccccc1CNc1ccccn1 | inactive: 11.9% |
| CN1CCCC(OC(=O)C(c2ccccc2)c2ccccc2)C1 (stereo not drawn) | inactive: -14.3% |
| O=P1(Nc2nc3ccc(Cl)cc3s2)COc2ccccc2O1 (stereo not drawn) | inactive: -12.1% |
| COC(=O)c1cc2c(s1)N=C(c1ccccc1)N(C)P2(=O)N1CCOCC1 (stereo not drawn) | inactive: -1% |
| CCC(=O)N1C2C3N(C(=O)CC)C1C1N(C(=O)CC)C(C(N1C(=O)CC)N3C(=O)CC)N2C(=O)CC | inactive: -11.3% |
| CCOC(=O)NC(Sc1ccccc1)C(Cl)(Cl)Cl (stereo not drawn) | inactive: 8.2% |
| O=C(OC1CN2CCC1CC2)c1cccc(Cl)c1 (stereo not drawn) | inactive: -12.1% |
| c1nnnn1CCn1cnnn1 | inactive: -9.6% |
| O=P(Nc1nccs1)(c1ccccc1)c1ccccc1 | inactive: -6.5% |
